Cneo AK release – Cryptococcus neoformans cell lysis inducers, primary screen, AK release luminescence, single concentration. C. neoformans lysis, adenylate kinase release luminescence, 4 h; normalised: neutral wells 0, clomiphene wells 100. lysis activity, % at 15 µM. hit rate 0.2% among 360,000. AID 651654, 2012;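 active means mean lysis activity across replicates of at least 80%, whatever share of replicates individually reach that level; inactive means mean lysis activity below 80%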
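Material: C. neoformans cells; Schedule: 4 h static compound exposure, 37 °C, read 1 h post-reagent; Measured by: adenylate kinase release luminescence; Read-out: signal increase indicating cell lysis; Controls: Clomiphene as positive lysis control.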
miR122 inh – miR-122 Renilla sensor signal increase in Huh7, primary screen, miR-122 inhibitor project, cell-based, single point, plate reader; Huh7 miR-122 Renilla luciferase sensor, 48 h; neutral wells = 0, positive control = 100; activation (reporter increase), % at 12.5 µM; hit rate 0.3% among 340,000;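 active means mean replicate activation score at least 90 and every replicate individually at or above 90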;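 further: higher luciferase means less miR-122 activity so hits act as miR-122 inhibitors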
FN deposit inh – inhibitors of fibronectin matrix deposition, primary screen, AH1F cells, Alexa488-fibronectin fluorescence, plate reader | hit rate 0.086% among 350,000 | AH1F fibroblasts, overnight | inhibition, % at 12.6 µM;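 active means mean inhibition across replicates of 30% or more, regardless of how many single replicates reach that level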
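Material: AH1F fibroblast monolayer depositing Alexa488-labelled fibronectin into matrix / Amount: 10000 AH1F cells per well / Signal: fluorescence 485/525 nm / Medium: DMEM, 2% serum / Compound: single dose, pinned / Incubation: 1 h cell adhesion before compound, then overnight fibronectin incubation / Reagent: Alexa488-FN, 24 nM final / Read-out: inhibition of fibronectin deposition signal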
Env fusion inh – inhibitors of HIV-1 Env-driven cell-cell fusion, primary screen, HeLa-JRFL effector, CEM21 target cells, luciferase. hit rate 1.1% among 360,000. inhibition, % at 12.3 µM;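 active means mean replicate inhibition score of at least 50 and every replicate individually at or above 50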
PGC1a acetyl inh – inhibitors of PGC1a acetylation signal, primary screen, cell-based, U2OS, AlphaScreen, inhibitor mode; inhibition, % at 15.6 µM; AlphaScreen anti-acetyl-lysine; with virally co-expressed GCN5 acetyltransferase; hit rate 0.17% among 350,000;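 active means every replicate shows inhibition of at least 40%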
UUG fidelity – alters start codon recognition fidelity in yeast; S. cerevisiae UUG-firefly luciferase reporter, luminescence/redox ratio; activity score, % at 18.7 µM; actives 0.13% (n = 350,000); AID 602363;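 active = replicate mean at a twofold rise or more, about +100% in these data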;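 also: firefly luciferase made from a UUG start codon reports start codon fidelity; reporter light over untreated wells divided by growth signal over untreated wells; some hits fall short of that in this replicate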
Of the large screens only hits and unclear results are named; the others gave an inactive call; [ ] = dose if it differs, or a comment. Compounds with a hit are over-represented: about 1.5% of the library has one in this group of screens.

Cc1ccc(-c2ccc3c(c2)O[C@@H](CN(C)Cc2ccncc2)[C@H](C)CN([C@H](C)CO)S3(=O)=O)cc1	Env fusion inh 89.9[16.7 µM]
C[C@@H]1CN([C@@H](C)CO)S(=O)(=O)c2ccc(-c3ccccc3)cc2O[C@@H]1CN(C)Cc1ccncc1	none
C[C@@H]1CN([C@H](C)CO)S(=O)(=O)c2ccc(C#CC3CC3)cc2O[C@@H]1CN(C)CC1CCOCC1	none
C[C@@H]1CN([C@H](C)CO)S(=O)(=O)c2ccc(C#CC3CC3)cc2O[C@H]1CN(C)CC1CCOCC1	Cneo AK release 85.2
C[C@H]1CN([C@@H](C)CO)S(=O)(=O)c2ccc(-c3ccncc3)cc2O[C@@H]1CN(C)Cc1ccc(Oc2ccccc2)cc1	none
Cc1ccc(-c2ccc3c(c2)O[C@H](CN(C)Cc2cccnc2)[C@@H](C)CN([C@H](C)CO)S3(=O)=O)cc1	Env fusion inh 78.5[16.7 µM]
Cc1ccc(-c2ccc3c(c2)O[C@@H](CN(C)Cc2cccnc2)[C@H](C)CN([C@@H](C)CO)S3(=O)=O)cc1	none
C[C@@H]1CN([C@H](C)CO)S(=O)(=O)c2ccc(-c3ccncc3)cc2O[C@@H]1CN(C)Cc1ccc(Oc2ccccc2)cc1	Env fusion inh 58.7[16.7 µM]
Cc1ccc(-c2ccc3c(c2)O[C@H](CN(C)Cc2ccncc2)[C@@H](C)CN([C@@H](C)CO)S3(=O)=O)cc1	Env fusion inh 91.0[16.7 µM]
Cc1ccc(-c2ccc3c(c2)O[C@@H](CN(C)Cc2ccc(F)cc2)[C@@H](C)CN([C@H](C)CO)S3(=O)=O)cc1	Cneo AK release 82.9 (no result: Env fusion inh)
C[C@H](CO)N1C[C@H](C)[C@@H](CN(C)Cc2ccncc2)Oc2cc(-c3ccccc3)ccc2S1(=O)=O	none
C[C@H]1CN([C@@H](C)CO)S(=O)(=O)c2ccc(C#CC3CCCCC3)cc2O[C@@H]1CN(C)Cc1cccnc1	PGC1a acetyl inh 63.9 (no result: FN deposit inh)
CCOC(=O)/C=C/C(=O)OCC(=O)Nc1cccc(Br)c1	none (no result: Cneo AK release, miR122 inh, PGC1a acetyl inh, UUG fidelity)
CCCCOc1ncnc2c1[nH]c1ccccc12	none (no result: miR122 inh, FN deposit inh, Env fusion inh, PGC1a acetyl inh)
O=C(Nc1ccc(F)cc1)N[C@H]1CC[C@H](CCn2cc(-c3ccccc3F)nn2)O[C@@H]1CO	none (no result: miR122 inh)
CCn1c(=O)c2cc(C(=O)N(C)c3cc(C)ccc3OC)sc2c2ccccc21	none
CC1CCN(C(=O)c2[nH]cnc2C(=O)N[C@@H](Cc2ccccc2)C(=O)OC(C)(C)C)CC1	none
CC12CCC(=O)N1C(C(=O)Nc1nc3ccc(S(C)(=O)=O)cc3s1)CS2 (stereo not given)	Env fusion inh 55.0 (no result: miR122 inh, FN deposit inh, PGC1a acetyl inh)
COc1ccc(NC(=O)N(C)C[C@@H]2OCCCC[C@@H](C)Oc3ccc(NC(=O)NC(C)C)cc3C(=O)N([C@H](C)CO)C[C@H]2C)cc1	none (no result: FN deposit inh)
Cc1nc2ccccn2c1C(=O)NNS(=O)(=O)c1ccc(C(C)(C)C)cc1	Env fusion inh 72.1 (no result: Cneo AK release, miR122 inh, PGC1a acetyl inh, UUG fidelity)
O=C(Nc1ccc(Cl)cn1)C1CCCN1S(=O)(=O)c1ccc(Cl)cc1 (stereo not given)	none (no result: Cneo AK release, FN deposit inh, Env fusion inh, UUG fidelity)
O=C(Nc1ccc(Cl)cn1)C1CCCN1S(=O)(=O)c1cccc2ccccc12 (stereo not given)	Env fusion inh 70.2 (no result: PGC1a acetyl inh)
N#Cc1ccccc1NC(=O)CN1C(=O)NC2(CCCC2)C1=O	none
O=C(CN1C(=O)NC2(CCCCCC2)C1=O)Nc1ccccc1[N+](=O)[O-]	miR122 inh 158.7 (no result: Cneo AK release, PGC1a acetyl inh, UUG fidelity)
CCC(=O)N1C[C@H](C)[C@H](OC)CN(C)C(=O)c2ccc(NS(C)(=O)=O)cc2OC[C@@H]1C	none (no result: PGC1a acetyl inh)
O=c1c(Cl)c(Cl)cnn1Cc1nnc(-c2ccccc2Br)o1	FN deposit inh 39.3 (no result: Cneo AK release, miR122 inh, PGC1a acetyl inh, UUG fidelity)
O=C(Nc1nc(-c2ccccn2)cs1)c1ccccc1-n1cnnn1	PGC1a acetyl inh 43.0
CN(CC(=O)NNC(=O)CNC(=O)c1ccccc1F)S(=O)(=O)c1ccc(Cl)cc1	none
CCOc1ccccc1C(=O)NCC(=O)NNC(=O)CN(C)S(=O)(=O)c1ccc(Cl)cc1	Env fusion inh 69.5
CCCCNC(=O)O[C@H]1C[C@@H]2CCN3C(=O)CCC[C@H]([C@H]1Cc1ccccc1)[C@H]23	Env fusion inh 56.1 (no result: miR122 inh, PGC1a acetyl inh)
CC[C@@H]1[C@H]2CCCC(=O)N3CC[C@@H](C[C@@H]1OC(=O)NCc1ccccc1)[C@@H]23	none
CCSC1=C(C#N)C(c2ccc(Cl)cc2)C2=C(CCCC2=O)N1 (stereo not given)	Env fusion inh 57.8
COc1ccccc1CNc1ccc(CNc2ncn[nH]2)cc1	none (no result: Cneo AK release, miR122 inh, PGC1a acetyl inh, UUG fidelity)
O=C(N[C@H]1CC[C@@H](CCn2cc(-c3ccccc3)nn2)O[C@H]1CO)c1cnccn1	none (no result: miR122 inh)
O=C(N[C@@H]1CC[C@H](CCn2cc(-c3ccc(F)cc3)nn2)O[C@@H]1CO)c1cnccn1	none (no result: miR122 inh, FN deposit inh)
COc1cccc(-c2cn(CC[C@@H]3CC[C@H](NC(C)=O)[C@@H](CO)O3)nn2)c1	Cneo AK release 94.1 (no result: miR122 inh, FN deposit inh)
O=C(N[C@H]1CC[C@@H](CCn2cc(-c3ccccc3)nn2)O[C@@H]1CO)c1cnccn1	Cneo AK release 92.9 (no result: miR122 inh)
O=C(N[C@@H]1CC[C@@H](CCn2cc(-c3ccccc3)nn2)O[C@H]1CO)c1cnccn1	Cneo AK release 96.1 (no result: miR122 inh)
Cc1cccc(C)c1OCC(=O)Nc1cccc(S(=O)(=O)N2CCCC2)c1	none (no result: PGC1a acetyl inh)
CCOc1ccc2nc(SCc3ccc(CC(=O)O)cc3)c(C#N)cc2c1	none
O=C(NC1CCCCC1)N1CC(=O)N2[C@@H](CO)[C@H](c3ccc(-c4cccc(F)c4)cc3)[C@@H]2C1	none (no result: Cneo AK release, miR122 inh, FN deposit inh, Env fusion inh, UUG fidelity)
Cc1cc(C)nc(NC(C)(C)C(=O)O)n1	none (no result: Cneo AK release, miR122 inh, PGC1a acetyl inh, UUG fidelity)
Cc1ccc(O)c(NC(=O)c2cccc(S(=O)(=O)N3CCCCC3)c2)c1	miR122 inh 112.9 (no result: FN deposit inh, Env fusion inh)
Cc1ccccc1NC(=O)c1cccc(S(=O)(=O)N2CCCCC2)c1	none
CCCn1c(NC(=O)c2cccc(S(=O)(=O)N3CCCC3)c2)nc2ccccc21	Env fusion inh 132.4 (no result: PGC1a acetyl inh)
Cc1ccc(C(=O)OCc2ccc3c(c2)OCO3)cc1S(=O)(=O)N1CCCCC1	Env fusion inh 55.1 (no result: FN deposit inh)
Cc1ccc(C(=O)Nc2ccc3c(c2)OCO3)cc1S(=O)(=O)N1CCCC1	none (no result: FN deposit inh, Env fusion inh)
CCc1n[nH]c(=S)n1/N=C/c1c(O)ccc2ccccc12	Env fusion inh 56.1
Cc1nnc(C)n1/N=C/c1c(O)ccc2ccccc12	none
Cc1nnc(-c2ccccc2)c(=O)n1/N=C/c1c(O)ccc2ccccc12	PGC1a acetyl inh 64.5 (no result: Cneo AK release, FN deposit inh, Env fusion inh, UUG fidelity)
Cc1ccc(S(=O)(=O)N(C)CC(=O)NCc2ccncc2)cc1	none
CCOc1ccc(N2C(=O)CC(Cc3ccc(Br)cc3)C2=O)cc1 (stereo not given)	PGC1a acetyl inh 70.9
COc1ccc(N2C(=O)CC(Cc3ccc(Br)cc3)C2=O)cc1 (stereo not given)	none

Bioassay records deposited in PubChem BioAssay by Broad Institute.
